Assay results from ChEMBL document CHEMBL3600322, “Phenoxymethyl 1,3-oxazoles and 1,2,4-oxadiazoles as potent and selective agonists of free fatty acid receptor 1 (GPR40)” (Bioorg Med Chem Lett, 2015).

Protein sequences, listed by entry. Tags and fused reporters are not part of them.
UniProt P05177, whole entry: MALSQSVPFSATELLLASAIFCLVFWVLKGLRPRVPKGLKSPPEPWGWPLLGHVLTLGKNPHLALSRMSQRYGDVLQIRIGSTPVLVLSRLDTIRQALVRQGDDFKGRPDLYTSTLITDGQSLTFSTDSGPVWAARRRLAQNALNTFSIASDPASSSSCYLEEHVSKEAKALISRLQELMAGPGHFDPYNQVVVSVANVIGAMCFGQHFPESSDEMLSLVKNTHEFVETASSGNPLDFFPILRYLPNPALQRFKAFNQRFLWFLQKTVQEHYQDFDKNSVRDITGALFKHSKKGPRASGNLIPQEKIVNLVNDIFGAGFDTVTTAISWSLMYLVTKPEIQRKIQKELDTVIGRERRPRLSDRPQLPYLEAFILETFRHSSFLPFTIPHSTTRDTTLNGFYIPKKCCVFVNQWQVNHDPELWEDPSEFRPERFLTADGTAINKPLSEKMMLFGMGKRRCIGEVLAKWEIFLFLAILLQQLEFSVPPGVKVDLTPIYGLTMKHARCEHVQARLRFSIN

Biological target: CYP1A2 (Homo sapiens, UniProt P05177)
Assay: in vitro

inhibition at 4 µM: 99.2%
Structure (SMILES): O=c1cc(-c2ccccc2)oc2c1ccc1ccccc12 [ALPHA-NAPHTHOFLAVONE]
